# Measured values reported in ChEMBL document CHEMBL3217531, “Potential Drug Abuse Therapeutics Derived from the Hallucinogenic Natural Product Salvinorin A” (Medchemcomm, 2011).
# Amino acid sequences for entries named in this document (tags omitted). A change or cut given only in a name is not applied to a line headed by its entry.
# UniProt P41145: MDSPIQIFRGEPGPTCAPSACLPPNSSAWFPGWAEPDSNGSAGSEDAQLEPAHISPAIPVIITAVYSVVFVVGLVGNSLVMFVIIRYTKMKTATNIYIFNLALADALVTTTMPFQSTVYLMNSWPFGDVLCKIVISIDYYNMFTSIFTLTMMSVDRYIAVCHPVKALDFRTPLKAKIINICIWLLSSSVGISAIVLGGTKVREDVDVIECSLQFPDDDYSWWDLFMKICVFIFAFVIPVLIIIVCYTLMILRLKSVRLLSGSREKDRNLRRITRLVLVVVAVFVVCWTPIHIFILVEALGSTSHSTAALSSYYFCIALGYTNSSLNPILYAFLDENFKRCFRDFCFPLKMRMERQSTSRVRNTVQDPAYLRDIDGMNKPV
# How the values were obtained:
# [1] = biological target: T1, Kappa-type opioid receptor (Homo sapiens, UniProt P41145); assay: Displacement of [3H]U69593 from human kappa opioid receptor expressed in CHO cell membrane after 2 hrs by scintillation counting analysis; type: cell membranes
# [2] = biological target: T1, Kappa-type opioid receptor; assay: Agonist activity at human kappa opioid receptor expressed in CHO cell membrane assessed as [35S]GTPgammaS binding after 3 hrs by liquid scintillation counting analysis relative to (-)-U50488H; type: functional, cell membranes
Structure (SMILES),Ki [1],Emax [2]
CCO[C@@H](C)O[C@H]1C[C@@H](C(=O)OC)[C@]2(C)CC[C@H]3C(=O)O[C@H](c4ccoc4)C[C@]3(C)[C@H]2C1=O,6.7 nM,101%
CCO[C@H](C)O[C@H]1C[C@@H](C(=O)OC)[C@]2(C)CC[C@H]3C(=O)O[C@H](c4ccoc4)C[C@]3(C)[C@H]2C1=O,1230 nM,
